The chains behind the UniProt entries cited, without tags or fusion partners.
UniProt P68363, whole entry, chain 1 of 2: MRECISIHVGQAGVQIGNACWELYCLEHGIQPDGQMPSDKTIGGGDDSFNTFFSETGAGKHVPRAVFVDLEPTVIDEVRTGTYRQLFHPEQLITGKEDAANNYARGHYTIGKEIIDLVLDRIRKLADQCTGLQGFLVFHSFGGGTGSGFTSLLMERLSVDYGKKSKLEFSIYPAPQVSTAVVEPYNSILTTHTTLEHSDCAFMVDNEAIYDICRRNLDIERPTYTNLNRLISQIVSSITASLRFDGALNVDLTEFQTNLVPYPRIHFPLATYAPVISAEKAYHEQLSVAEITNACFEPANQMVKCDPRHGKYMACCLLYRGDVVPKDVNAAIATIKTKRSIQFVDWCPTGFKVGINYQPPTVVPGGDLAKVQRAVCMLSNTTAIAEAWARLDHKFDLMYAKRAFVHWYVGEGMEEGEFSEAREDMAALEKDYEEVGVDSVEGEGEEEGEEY

In paper PMC7310041:

Target: microtubules (paclitaxel-stabilised polymerised tubulin) (human (endogenous in HEK293T)) (UniProt P68363)
Test: co-sedimentation; cell-based MT binding assay: lysate of transfected HEK293T cells in PEM buffer (80 mM PIPES pH 6.8, 1 mM EGTA, 1 mM MgCl2) with 0.1% Triton X-100, 2 mM GTP, 20 uM paclitaxel; 37 °C 30 min; 100,000 g 30 min; tau in supernatant and pellet by Western blot; percent MT-bound = pellet/(supernatant+pellet)*100

percent of tau bound to MTs: 30%
Substance: 2N4R human WT tau (from UniProt P10636-8 1-441) (natural protein)
